From PubChem BioAssay AID1347165 (National Center for Advancing Translational Sciences (NCATS), 2019) come the findings set out here.

By UniProt entry, the sequences of proteins in these tests, tags left out.
UniProt Q9UGL1, whole entry: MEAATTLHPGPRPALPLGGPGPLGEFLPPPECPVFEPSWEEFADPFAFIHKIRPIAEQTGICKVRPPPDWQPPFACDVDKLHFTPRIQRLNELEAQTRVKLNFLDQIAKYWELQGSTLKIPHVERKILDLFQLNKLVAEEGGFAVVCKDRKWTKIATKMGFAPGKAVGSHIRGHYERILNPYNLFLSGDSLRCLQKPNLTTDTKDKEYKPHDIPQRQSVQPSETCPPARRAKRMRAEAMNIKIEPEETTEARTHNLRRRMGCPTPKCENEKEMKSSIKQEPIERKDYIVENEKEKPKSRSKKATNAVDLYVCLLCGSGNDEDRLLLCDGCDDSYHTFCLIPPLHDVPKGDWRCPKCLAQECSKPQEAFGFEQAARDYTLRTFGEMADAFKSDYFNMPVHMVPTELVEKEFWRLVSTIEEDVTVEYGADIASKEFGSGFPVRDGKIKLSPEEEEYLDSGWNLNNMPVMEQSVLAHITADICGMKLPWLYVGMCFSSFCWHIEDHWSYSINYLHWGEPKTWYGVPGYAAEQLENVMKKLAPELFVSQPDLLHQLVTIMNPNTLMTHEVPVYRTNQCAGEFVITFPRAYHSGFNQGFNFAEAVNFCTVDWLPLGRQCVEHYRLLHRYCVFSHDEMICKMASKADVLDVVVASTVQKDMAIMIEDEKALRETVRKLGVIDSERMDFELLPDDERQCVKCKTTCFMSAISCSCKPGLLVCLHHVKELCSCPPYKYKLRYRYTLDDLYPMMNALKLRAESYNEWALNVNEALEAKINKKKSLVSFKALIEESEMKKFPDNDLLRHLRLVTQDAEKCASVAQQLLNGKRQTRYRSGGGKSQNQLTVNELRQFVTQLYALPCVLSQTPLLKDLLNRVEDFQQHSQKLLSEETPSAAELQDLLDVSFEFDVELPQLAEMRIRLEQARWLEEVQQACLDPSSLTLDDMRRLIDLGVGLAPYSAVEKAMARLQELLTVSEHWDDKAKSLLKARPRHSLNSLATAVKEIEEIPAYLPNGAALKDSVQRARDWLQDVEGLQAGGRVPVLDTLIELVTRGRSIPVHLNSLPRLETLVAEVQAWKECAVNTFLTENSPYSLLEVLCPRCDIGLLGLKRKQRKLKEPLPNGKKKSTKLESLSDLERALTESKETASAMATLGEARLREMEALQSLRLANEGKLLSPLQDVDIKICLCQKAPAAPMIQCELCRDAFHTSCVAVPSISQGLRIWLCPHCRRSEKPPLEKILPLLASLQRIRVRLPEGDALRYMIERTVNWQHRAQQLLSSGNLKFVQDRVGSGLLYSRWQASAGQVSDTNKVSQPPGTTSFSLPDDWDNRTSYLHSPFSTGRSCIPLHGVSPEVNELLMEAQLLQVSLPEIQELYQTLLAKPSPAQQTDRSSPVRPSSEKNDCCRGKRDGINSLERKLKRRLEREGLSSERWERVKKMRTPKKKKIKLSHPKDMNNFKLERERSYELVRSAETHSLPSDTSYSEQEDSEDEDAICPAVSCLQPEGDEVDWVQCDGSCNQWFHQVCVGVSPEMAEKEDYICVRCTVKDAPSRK

The structures appear in SMILES notation. Several values for one entry are separate records, joined by “and”; a condition that tells them apart may be missing. Equal values may be shown once. This is a selection; strong and weak results do not stand in their true shares. Some of these compounds have results that are not shown, active ones among them. Records with an inconclusive call do not appear. Activity calls are given as the source filed them. Calls follow the shape of the dose curve; as a rule, active = well fitted inhibition curve with a large enough effect; inconclusive = small, poorly fitted or top-dose-only effect; inactive = no such curve, though single readings can be large or run the other way.

The assay has as its target Lysine-specific demethylase 5B (Homo sapiens) (UniProt Q9UGL1). Nature of the assay: Primary screen for KDM5B Histone Demethylases FDH-coupled qHTS. Also: 0% is about no effect; nearly all actives have a fitted effect of over 70% in size. Conditions: FDH-coupled NADH fluorescence (FDH is formaldehyde dehydrogenase); at 57.7 µM (top of the series). The source says:
Assay Submitter (PI): Qin Yan, Ph.D. (Yale University) and Xiaodong Cheng, Ph.D. (MD Anderson) This project was funded as part of the NCI NEXT Program and Chemical Biology Consortium (CBC) The histone demethylases, KDM5A and KDM5B catalyze the demethylation of lysine 4 on histone H3 (H3K4me3/2). They are overexpressed in a variety of cancers and have been implicated in cancer cell growth, metastasis, drug resistance, and tumor growth. KDM5A is amplified and overexpressed in breast and gastric cancer; and is translocated in leukemia. While KDM5B is highly expressed in human mammary tumors and breast cancer cell lines, but not in normal adult breast tissue. Moreover, knockdown of KDM5B leads to upregulation of tumor suppressor genes, including BRCA1. The goal of this project is to employ qHTS to identify selective small molecule inhibitors of KDM5A/B demethylase activity to better understand the role of KDM5 in cancer and to develop novel therapies. We employed an FDH-coupled assay previously reported by Sakurai et al. to monitor in vitro KDM5 demethylase activity. Compounds showing dose response inhibition are re-acquired, validated, and tested for non-specific interference with the formaldehyde dehydrogenase (FDH) counterscreen. True inhibitors are validated using an AlphaLisa secondary screen, which employs an H3K4(me2-1)-specific antibody to monitor demethylation of a biotin-tagged H3K4(me3) peptide substrate. Inhibitors are profiled against KDM4A and KDM6A AlphaLisa counterscreens to determine level of demethylase specificity; and against the TruHits counterscreen to eliminate non-specific inhibitory activity on the AlphaLISA detection method. Selective inhibitors identified from the primary and secondary screening are tested in cells using immunofluorescence to monitor global H3K4 tri-methylation as a measure of KDM5A/B inhibition. Early Translation Branch (ETB) National Center for Advancing Translational Sciences (NCATS), Rockville, MD National Institute of Health (NIH), Bethesda, Maryland [1] Sakurai, M et al. A miniaturized screen for inhibitors of Jumonji histone demethylases. Mol Biosyst. 2010 Feb;6(2):357-64. doi: 10.1039/b912993f. Epub 2009 Oct 8.
Materials: 1536-well Black, solid bottom, medium binding assay plate is purchased from Greiner Bio-one. The enzymes (KDM5B) and substrate (H3K4me3/2) are provided by the principal investigators. The buffer for this assay is composed of 50mM HEPES at pH 7.5 with 0.01% Tween-20. FDH coupled Demethylase qHTS protocol: Three microliter enzyme mix (buffer + 200nM KDM5BDeltaAP final concentration) is dispensed into the assay plate using the BioRAPTR Flying Reagent Dispenser (FRD; […]). Compound (at various final concentration) and control solution is pin transferred to the assay plate using the Kalypsys 1536-pin tool apparatus. The assay plate is incubated for 10 min at room temperature followed by addition of 1uL substrate mix (buffer + 100uM ascorbic acid, 50uM ferrous ammonium sulfate, 12.5uM H3K4Me3, 25uM a-ketoglutarate, 0.25 mM NAD+, 0.25 U/mL formaldehyde dehydrogenase using the FRD yielding a total reaction volume of 4 uL. Initial fluorescence (Read1) is detected using the PerkinElmer ViewLux plate reader equipped with 340 nm excitation and 450 nm emission filters. The final fluorescence (Read2) signal is obtained after 30 min of room temperature incubation. Delta RFU is calculated (Read2 - Read1) and is used to generated dose response curves.
A general note: qHTS replaces the single test concentration by a dilution series.
With `CCOc1cccc(C(=O)NCC2(N(C)C)CCCCC2)c1`, the activity change, negative = inhibition is inactive: -8.73%.

As to `O=C(NCC1(N2CCCCC2)CCCCC1)c1cccc(Br)c1`, the activity change, negative = inhibition was inactive: -3.02%.

`O=C(NCC1(N2CCOCC2)CCCCC1)c1cc(=O)c2ccccc2o1`: the activity change, negative = inhibition was inactive: 13.6%.

In the case of `CN(C)CCOC(=O)C(O)(c1ccccc1)C1CCCCC1` (stereo not given), the activity change, negative = inhibition is inactive: 3.96%.

As to `CN(C)C1(CNC(=O)c2cccs2)CCCCC1`, the activity change, negative = inhibition was inactive: 8.1%.

For the compound `CCCCOc1ccccc1C(=O)NCC1(N(C)C)CCCCC1`, the activity change, negative = inhibition is inactive: -6.62%.

For the compound `CCOc1ccccc1C(=O)NCC1(N(C)C)CCCCC1`, the activity change, negative = inhibition was inactive: -6.86%.

For `CN(C)C1(CNC(=O)c2ccccc2[N+](=O)[O-])CCCCC1`, the activity change, negative = inhibition was inactive: -22.8%.

Turning to `CN(C)C1(CNC(=O)c2ccccc2F)CCCCC1`, the activity change, negative = inhibition was inactive: -6.47%.

For `CN(C)C1(CNC(=O)c2cccc(Cl)c2)CCCCC1`, the activity change, negative = inhibition was inactive: 14.2%.

On to `CC(CCN(CCCl)CCCl)c1ccccc1` (stereo not given), for which the activity change, negative = inhibition was inactive: -9.36%.

With `O=C(CCC1CCCCC1)N1CCN(C/C=C/c2ccccc2)CC1`, the activity change, negative = inhibition is inactive: 6.23%.

Consider `CC(C)Oc1ccc(C(=O)NCC2(N(C)C)CCCCC2)cc1`, for which the activity change, negative = inhibition is inactive: -5.98% and inactive: -1.75%.

With `COc1ccc(Br)c(C(=O)NCC2(N3CCCCC3)CCCCC2)c1`, the activity change, negative = inhibition was inactive: -7.94%.

Take `Cc1cccc(C(=O)NCC2(N(C)C)CCCCC2)c1`: the activity change, negative = inhibition is inactive: -10.9%.

Turning to `COc1cc(C(=O)NCC2(N(C)C)CCCCC2)cc(OC)c1OC`, the activity change, negative = inhibition is inactive: 2.24%.

With `CC(C)COc1ccc(C(=O)NCC2(N(C)C)CCCCC2)cc1`, the activity change, negative = inhibition was inactive: -4.92%.

As for `COc1cccc(C(=O)NCC2(N3CCOCC3)CCCCC2)c1`, the activity change, negative = inhibition is inactive: -20.5%.

As to `COc1ccc(C(=O)NCC2(N(C)C)CCCCC2)cc1Cl`, the activity change, negative = inhibition is inactive: -8.06%.

Take `COc1cc(C(=O)NCC2(N(C)C)CCCCC2)c([N+](=O)[O-])cc1OC`: the activity change, negative = inhibition is inactive: -3.29%.
